In PubChem BioAssay AID1552 (Sanford-Burnham Center for Chemical Genomics, 2009):
The source made the active and inactive calls. The rule behind the calls is not given here.

The chains behind the UniProt entries cited, without tags or fusion partners.
UniProt P61088, whole entry: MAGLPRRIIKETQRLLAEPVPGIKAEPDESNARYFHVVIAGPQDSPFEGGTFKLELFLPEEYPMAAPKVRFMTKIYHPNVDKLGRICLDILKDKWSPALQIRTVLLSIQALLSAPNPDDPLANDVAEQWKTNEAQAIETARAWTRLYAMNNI

Molecular target: Ubiquitin-conjugating enzyme E2 N (Homo sapiens) (UniProt P61088)
Experiment: NMR detection of UBE2N ligand binding – biophysical, purified protein (AID 1552)
Details: NMR binding to purified UBE2N

## OC1CN2CCC1CC2 (configuration not stated)
  Kd: inactive: > 4 mM

## CP(N)(=O)Oc1ccc(Cl)cc1 (configuration not stated)
  Kd: inactive: > 4 mM
